Measured values reported in patent US5084441A, “Acetylated low density lipoproteins: a delivery system to phagocytic cells for stimulating immunologic response and host resistance” (priority 1988, dated 1992).

Tested on: P815 mastocytoma target cells
Test: Macrophage-mediated cytotoxicity ([3H]thymidine release) after treating thioglycolate-elicited macrophages
Method: Macrophage-mediated cytotoxicity: Cytotoxicity was determined using a [3H] thymidine release assay. Thioglycolate-elicited macrophages were plated in 96-well flat-bottom tissue culture plates (Costar, Cambridge, Mass.) at 4×10^5 and 1×10^4 macrophage per well. […] After 24 hours, the plates were washed three times and [3H] thymidine labelled P815 tumor target cells (1×10^4) were added to each well. The total assay volume was 250 μl in DMEM with 10% FCS and the plates were incubated an additional 24 hours. After incubation, the microplates were centrifuged for 2 minutes at 250×g and a 125 μl aliquot of supernatant was removed and counted by liquid […]. Total incorporation of radioactivity was determined by adding 1×10^4 cells to 2 ml of Beckman Redissolve scintillation cocktail.
The percent specific release was calculated. [formula]
All samples were plated in triplicate and the data presented as the mean ±S.D. of triplicates.

Row | Substance | effect of addition on the cytotoxicity activity (10 ng lipopolysaccharide added, data not shown) | Percent Cytotoxicity (effector to target cell ratio 1:1, same amounts per well) [%] | Percent Cytotoxicity (effector to target cell ratio 5:1, same amounts per well) [%] | Percent Cytotoxicity (effector to target cell ratio 10:1, same amounts per well) [%] | Percent Cytotoxicity (effector to target cell ratio 20:1, same amounts per well) [%] | Percent Cytotoxicity (effector to target cell ratio 40:1, per well: complex 18.0 ug protein containing 3.6 ug MTP-PE, free MTP-PE 3.6 ug, acetyl-LDL 18.0 ug protein) [%]
1 | lipopolysaccharide | no effect | – | – | – | – | –
2 | muramyl tripeptide phosphatidylethanolamine [MTP-PE] | – | 3 ± 4 | 6 ± 4 | 8.6 ± 4 | 4.3 ± 1.2 | 7.5 ± 7
